Cyclic peptide permeability, from CycPeptMPDB

Source: CycPeptMPDB (Li et al. 2023), which took these values from Townsend et al. 2020, doi:10.26434/chemrxiv.13335941.v1.

PAMPA is the parallel artificial membrane permeability assay, which has no cells and reads passive diffusion. Permeability is given as log10 of P in cm/s; higher (less negative) is more permeable.

- CC(C)C[C@@H]1NC(=O)[C@@H](CC(C)C)NC(=O)[C@H](C)NC(=O)[C@H]2CCCN2C(=O)[C@H](Cc2ccccc2)NC(=O)CN(Cc2ccccc2)C(=O)[C@H]2CCCN2C1=O: PAMPA -6.81 (log10 cm/s)
- CCCN1CC(=O)N(C)[C@H](CC(C)C)C(=O)N(Cc2ccccc2)CC(=O)N2CCC[C@@H]2C(=O)N(C)[C@H](CC(C)C)C(=O)N[C@@H](Cc2ccccc2)C(=O)N2CCC[C@H]2C1=O: PAMPA -6.12 (log10 cm/s)
- CC(C)C[C@H]1NC(=O)[C@@H]2CCCN2C(=O)CN(Cc2ccccc2)C(=O)[C@H](CC(C)C)N(C)C(=O)[C@@H](C)NC(=O)[C@H](Cc2ccccc2)NC1=O: PAMPA -5.79 (log10 cm/s)
- CC(C)C[C@@H]1C(=O)N[C@@H](Cc2ccccc2)C(=O)N2CCC[C@@H]2C(=O)N[C@H](C)C(=O)N(C)[C@@H](CC(C)C)C(=O)N(Cc2ccccc2)CC(=O)N2CCC[C@@H]2C(=O)N1C: PAMPA -5.96 (log10 cm/s)
- CC(C)C[C@@H]1NC(=O)[C@@H]2CCCN2C(=O)CN(Cc2ccccc2)C(=O)[C@@H](CC(C)C)NC(=O)[C@H](C)N(C)C(=O)[C@@H]2CCCN2C(=O)[C@H](Cc2ccccc2)NC1=O: PAMPA -6.79 (log10 cm/s)
- CCCN1CC(=O)N(C)[C@@H](CC(C)C)C(=O)N[C@@H](CC(C)C)C(=O)N2CCC[C@H]2C(=O)N(C)[C@@H](CC(C)C)C(=O)N[C@@H](Cc2ccccc2)C(=O)N2CCC[C@H]2C1=O: PAMPA -5.10 (log10 cm/s)
- CC(C)C[C@@H]1NC(=O)[C@H](C)NC(=O)[C@H]2CCCN2C(=O)[C@H](Cc2ccccc2)NC(=O)[C@@H](CC(C)C)N(C)C(=O)[C@@H]2CCCN2C(=O)[C@H](CC(C)C)N(C)C1=O: PAMPA -6.17 (log10 cm/s)
- CC(C)C[C@H]1NC(=O)[C@H](C)N(C)C(=O)[C@H]2CCCN2C(=O)[C@H](Cc2ccccc2)NC(=O)[C@H](CC(C)C)N(C)C(=O)[C@H]2CCCN2C(=O)[C@@H](CC(C)C)NC1=O: PAMPA -5.96 (log10 cm/s)
- CC(C)C[C@@H]1NC(=O)[C@H]2CCCN2C(=O)CN(Cc2ccccc2)C(=O)[C@@H](CC(C)C)NC(=O)[C@H](C)NC(=O)[C@H]2CCCN2C(=O)[C@H](Cc2ccccc2)NC1=O: PAMPA -6.07 (log10 cm/s)
- CC(C)C[C@H]1NC(=O)[C@@H]2CCCN2C(=O)CN(Cc2ccccc2)C(=O)[C@H](CC(C)C)N(C)C(=O)[C@H](C)N(C)C(=O)[C@H](Cc2ccccc2)NC1=O: PAMPA -5.27 (log10 cm/s)
- CC(C)C[C@H]1NC(=O)[C@H](C)N(C)C(=O)[C@@H]2CCCN2C(=O)[C@H](Cc2ccccc2)NC(=O)[C@H](CC(C)C)N(C)C(=O)[C@H]2CCCN2C(=O)[C@H](CC(C)C)N(C)C1=O: PAMPA -5.43 (log10 cm/s)
- CC(C)C[C@@H]1C(=O)N[C@@H](Cc2ccccc2)C(=O)N2CCC[C@H]2C(=O)N[C@@H](C)C(=O)N(C)[C@@H](CC(C)C)C(=O)N[C@@H](Cc2ccccc2)CC(=O)N2CCC[C@@H]2C(=O)N1C: PAMPA -5.07 (log10 cm/s)
- CC(C)C[C@H]1NC(=O)[C@@H]2CCCN2C(=O)[C@@H](CC(C)C)NC(=O)[C@H](CC(C)C)N(C)C(=O)[C@@H](C)NC(=O)[C@H](Cc2ccccc2)NC1=O: PAMPA -6.26 (log10 cm/s)
- CC(C)C[C@@H]1NC(=O)[C@@H]2CCCN2C(=O)[C@H](CC(C)C)N(C)C(=O)[C@@H](CC(C)C)NC(=O)[C@@H](C)N(C)C(=O)[C@@H]2CCCN2C(=O)[C@H](Cc2ccccc2)NC1=O: PAMPA -6.86 (log10 cm/s)
- CC(C)C[C@@H]1NC(=O)[C@@H]2CCCN2C(=O)[C@H](CC(C)C)NC(=O)[C@H](CC(C)C)N(C)C(=O)C[C@H](Cc2ccccc2)NC(=O)[C@H]2CCCN2C(=O)[C@H](Cc2ccccc2)NC1=O: PAMPA -5.45 (log10 cm/s)
- CC(C)C[C@@H]1NC(=O)[C@H]2CCCN2C(=O)[C@@H](CC(C)C)NC(=O)[C@@H](CC(C)C)N(C)C(=O)[C@H](C)NC(=O)[C@H](Cc2ccccc2)NC1=O: PAMPA -6.35 (log10 cm/s)
- CC(C)C[C@@H]1C(=O)N2CCC[C@H]2C(=O)N[C@H](CC(C)C)C(=O)N[C@@H](Cc2ccccc2)C(=O)N(C)[C@H](C)C(=O)N[C@H](CC(C)C)C(=O)N1C: PAMPA -4.94 (log10 cm/s)
- CCCN1CC(=O)N(C)[C@H](CC(C)C)C(=O)N[C@@H](Cc2ccccc2)CC(=O)N2CCC[C@@H]2C(=O)N(C)[C@H](CC(C)C)C(=O)N[C@@H](Cc2ccccc2)C(=O)N2CCC[C@@H]2C1=O: PAMPA -5.29 (log10 cm/s)
- CC(C)C[C@@H]1C(=O)N[C@@H](Cc2ccccc2)C(=O)N2CCC[C@@H]2C(=O)N(C)[C@H](C)C(=O)N[C@H](CC(C)C)C(=O)N(Cc2ccccc2)CC(=O)N2CCC[C@H]2C(=O)N1C: PAMPA -5.90 (log10 cm/s)
- CC(C)C[C@@H]1NC(=O)[C@H]2CCCN2C(=O)[C@H](CC(C)C)N(C)C(=O)[C@@H](CC(C)C)NC(=O)[C@@H](C)N(C)C(=O)[C@H]2CCCN2C(=O)[C@H](Cc2ccccc2)NC1=O: PAMPA -6.37 (log10 cm/s)
- CC(C)C[C@@H]1NC(=O)[C@H]2CCCN2C(=O)[C@@H](CC(C)C)NC(=O)[C@@H](CC(C)C)NC(=O)C[C@H](Cc2ccccc2)NC(=O)[C@@H]2CCCN2C(=O)[C@H](Cc2ccccc2)NC1=O: PAMPA -5.76 (log10 cm/s)
- CC(C)C[C@@H]1C(=O)N[C@@H](Cc2ccccc2)C(=O)N[C@H](C)C(=O)N[C@H](CC(C)C)C(=O)N[C@H](CC(C)C)C(=O)N2CCC[C@@H]2C(=O)N1C: PAMPA -6.75 (log10 cm/s)

Excerpt, the opening 2 entries:

{"smiles": "CC(C)C[C@@H]1NC(=O)[C@@H](CC(C)C)NC(=O)[C@H](C)NC(=O)[C@H]2CCCN2C(=O)[C@H](Cc2ccccc2)NC(=O)CN(Cc2ccccc2)C(=O)[C@H]2CCCN2C1=O", "PAMPA (log10 cm/s)": "-6.81"}
{"smiles": "CCCN1CC(=O)N(C)[C@H](CC(C)C)C(=O)N(Cc2ccccc2)CC(=O)N2CCC[C@@H]2C(=O)N(C)[C@H](CC(C)C)C(=O)N[C@@H](Cc2ccccc2)C(=O)N2CCC[C@H]2C1=O", "PAMPA (log10 cm/s)": "-6.12"}

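Conditions beyond the assay type are not listed; see the original paper. The list need not hold all peptides of the study. Peptides that the database sets to -10, its floor, are left out.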